# Values quoted from earlier work as cited in PubChem BioAssay AID977611 (Shanghai Institute of Organic Chemistry, 2014).
# Legend:
# Test in all cases: PubChem AID 977611
# [1] = target: CATIONIC TRYPSIN(residue 21-243); details: PDB protein-ligand complexes, literature Kd; protein: CATIONIC TRYPSIN(residue 21-243); PDB entry 2J9N
# beta-glucosidase a = details: PDB protein-ligand complexes, literature Kd; protein: beta-glucosidase a; PDB entry 2CBU
# [2] = target: sialic acid binding protein hi0146; details: PDB protein-ligand complexes, literature Kd; protein: sialic acid binding protein hi0146; PDB entry 2CEX
# Rice GID1 = details: PDB protein-ligand complexes, literature Kd; protein: Rice GID1; PDB entry 3EBL
# [3] = target: glutathione s-transferase 28 kda; details: PDB protein-ligand complexes, literature Kd; protein: glutathione s-transferase 28 kda; PDB entry 2CA8
structure (smiles),measurement,setting,value
N=C(N)c1ccccc1,Kd,[1],20 µM
O[C@H]1[C@H](O)[C@@H](O)CN2CC[C@H](O)[C@H]12,Kd,beta-glucosidase a,2.1 µM
CC(=O)N[C@H]1[C@H]([C@H](O)[C@H](O)CO)OC(C(=O)O)=C[C@@H]1O,Kd,[2],20 µM
C=C1C[C@]23C[C@H]1CC[C@H]2[C@@]12CC[C@H](O)[C@@](C)(C(=O)O1)[C@H]2[C@@H]3C(=O)O,Kd,Rice GID1,0.5 µM
N[C@H](CCC(=O)N[C@@H](CS)C(=O)NCC(=O)O)C(=O)O,Kd,[3],22 µM
